Amino acid sequences for entries named in this document (tags omitted). A change or cut given only in a name is not applied to a line headed by its entry.
UniProt P05804: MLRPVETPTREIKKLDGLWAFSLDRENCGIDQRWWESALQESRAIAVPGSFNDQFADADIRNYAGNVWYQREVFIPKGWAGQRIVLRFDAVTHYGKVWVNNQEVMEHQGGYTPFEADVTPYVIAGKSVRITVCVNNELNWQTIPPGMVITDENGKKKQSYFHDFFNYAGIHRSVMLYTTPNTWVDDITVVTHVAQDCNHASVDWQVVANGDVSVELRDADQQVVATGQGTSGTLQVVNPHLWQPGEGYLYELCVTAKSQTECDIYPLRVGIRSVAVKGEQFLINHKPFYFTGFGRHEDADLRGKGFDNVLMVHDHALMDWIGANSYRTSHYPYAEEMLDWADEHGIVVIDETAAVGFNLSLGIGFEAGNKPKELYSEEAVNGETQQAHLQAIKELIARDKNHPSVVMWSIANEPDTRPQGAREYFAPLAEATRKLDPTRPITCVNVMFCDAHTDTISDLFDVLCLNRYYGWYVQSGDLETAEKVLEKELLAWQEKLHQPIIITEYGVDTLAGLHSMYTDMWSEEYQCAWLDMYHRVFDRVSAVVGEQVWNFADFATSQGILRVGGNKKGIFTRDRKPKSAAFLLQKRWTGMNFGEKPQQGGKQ

According to patent US9157109B2, “Biosensors utilizing ink jet-printed biomolecule compatible sol gel inks and uses thereof” (McMaster University, priority 2009, dated 2015):

Experiments:
β-Glucuronidase (GUS) [1] = target: T1, β-Glucuronidase (GUS) (Escherichia coli, UniProt P05804); assay type: biochemical, E. coli; set-up: purchased Sigma-Aldrich type VII-A (catalogue number not given)
Experimental: (§1) For this, all of these substrates were dissolved separately with sodium phosphate buffer (75 mM, pH 8). […] 20 μL of GUS (final concentration of 1 U/mL) was then added into each well and incubated for 30 min to allow color development. The absorbance at 610, 400, and 380 nm was then measured using a TECAN M1000 plate reader. A digital camera was also used to take a photograph of the plate. […] (0-10 mM), and FeCl3 (2 mM) were entrapped on paper as described previous section (FIG. 13b). The sensor was then immersed into GUS solution (1 U/mL) and removed as soon as the Gus solution has reached the sensing region through FeCl3 zone followed by a certain incubation time (5, 30, and 60 min) at room temperature.
Experiments were conducted firstly in 96-well plate, in which GUS (final concentration of 1 U/mL) was entrapped in silica gel. […] (4 mM) and oxidizing agents (1 mM each) were then added to each well (designated for the individual oxidizing agent), and incubated for 30 min. The concentration gradient (0-30 mM) of FeCl3 was also observed in 96-well plate. The absorbance at 610 was measured using a TECAN M1000 plate reader for each experiment. A digital camera was also used to take a photograph of the plate. […] (3 mM) were entrapped on paper using biocompatible silica material in order to make the sensor strips, as described in the previous section. […]

β-Glucuronidase (GUS) [2] = target: T1, β-Glucuronidase (GUS)
Experimental: as §1

Substance: 5-bromo-4-chloro-3-indolyl β-D-glucuronide sodium salt [X-Gluc]
- visual color formation via GUS catalyzed hydrolysis (β-Glucuronidase (GUS) [1]): distinct deep blue color
- Km (β-Glucuronidase (GUS) [2]): ~700 µM
